Measured values published in ChEMBL document CHEMBL1156238, “Allosteric inhibitors of hepatitis C virus NS5B polymerase thumb domain site II: structure-based design and synthesis of new templates” (Bioorg Med Chem, 2010).

Test system: Hepatitis C virus
Assay: Antiviral activity against HCV infected in human HBI10A cells
Format: functional, organism-based, Hepacivirus hominis

Question: For O=C1c2cccc3c(NCCO)ccc(c23)C(=O)N1c1cccc(Br)c1, which EC50 is on record?
Answer: 7.1 µM
